In ChEMBL document CHEMBL6096646, “Sulfonamide-derivatized galactosides selectively target an unexplored binding site in the galectin-9N-terminal domain” (Bioorg Med Chem, 2024):
The source made the active and inactive calls. The rule behind the calls is not given here.

Chains of the proteins cited; added tags and fusions are not shown.
UniProt P09382, whole entry: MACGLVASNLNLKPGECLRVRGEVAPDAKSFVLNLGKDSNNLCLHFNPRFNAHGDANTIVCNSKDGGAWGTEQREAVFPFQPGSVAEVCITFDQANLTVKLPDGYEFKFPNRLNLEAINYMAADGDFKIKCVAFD
UniProt P47929, whole entry: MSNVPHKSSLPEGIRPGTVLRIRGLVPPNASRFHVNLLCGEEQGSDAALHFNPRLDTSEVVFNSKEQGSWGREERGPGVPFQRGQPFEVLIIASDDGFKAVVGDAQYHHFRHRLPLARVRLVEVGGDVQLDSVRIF
UniProt P17931, whole entry: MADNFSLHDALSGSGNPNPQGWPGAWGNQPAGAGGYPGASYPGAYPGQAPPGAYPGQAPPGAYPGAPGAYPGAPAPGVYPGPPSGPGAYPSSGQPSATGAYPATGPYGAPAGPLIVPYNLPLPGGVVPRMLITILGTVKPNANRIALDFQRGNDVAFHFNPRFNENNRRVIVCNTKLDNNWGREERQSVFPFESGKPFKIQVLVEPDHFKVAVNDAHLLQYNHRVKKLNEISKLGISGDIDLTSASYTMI

These compounds were tested against Galectin-1 (Homo sapiens) (UniProt P09382) (assay: Binding affinity to human Galectin-1 at 2 mM by competitive fluorescence polarization assay).

Activity, inactive:
CO[C@H]1O[C@H](CO)[C@H](O)[C@H](n2cc(-c3ccccc3NS(=O)(=O)C/C=C/c3ccccc3O)nn2)[C@H]1O
CO[C@H]1O[C@H](CO)[C@H](O)[C@H](n2cc(-c3ccccc3S(=O)(=O)N(C)c3ccccc3)nn2)[C@H]1O
CO[C@H]1O[C@H](CO)[C@H](O)[C@H](n2cc(-c3ccccc3NS(=O)(=O)c3cccc4ccccc34)nn2)[C@H]1O

These compounds were tested against Galectin-7 (Homo sapiens, UniProt P47929) (assay: Binding affinity to human Galectin-7 at 2 mM by competitive fluorescence polarization assay).

Activity, inactive:
CO[C@H]1O[C@H](CO)[C@H](O)[C@H](n2cc(-c3ccccc3NS(=O)(=O)C/C=C/c3ccccc3O)nn2)[C@H]1O
CO[C@H]1O[C@H](CO)[C@H](O)[C@H](n2cc(-c3cccc(NS(=O)(=O)c4ccccc4)c3)nn2)[C@H]1O
CO[C@H]1O[C@H](CO)[C@H](O)[C@H](n2cc(-c3ccccc3S(=O)(=O)N(C)c3ccccc3)nn2)[C@H]1O
CO[C@H]1O[C@H](CO)[C@H](O)[C@H](n2cc(-c3cccc(S(=O)(=O)Nc4ccccc4)c3)nn2)[C@H]1O
CO[C@H]1O[C@H](CO)[C@H](O)[C@H](n2cc(-c3ccccc3NS(=O)(=O)c3cccc4ccccc34)nn2)[C@H]1O

The compounds below were run against T1, Galectin-4 (Homo sapiens) (UniProt P56470) (assay: Binding affinity to C-terminal human Galectin-4 at 2 mM by competitive fluorescence polarization assay).
T1 sequence (whole entry): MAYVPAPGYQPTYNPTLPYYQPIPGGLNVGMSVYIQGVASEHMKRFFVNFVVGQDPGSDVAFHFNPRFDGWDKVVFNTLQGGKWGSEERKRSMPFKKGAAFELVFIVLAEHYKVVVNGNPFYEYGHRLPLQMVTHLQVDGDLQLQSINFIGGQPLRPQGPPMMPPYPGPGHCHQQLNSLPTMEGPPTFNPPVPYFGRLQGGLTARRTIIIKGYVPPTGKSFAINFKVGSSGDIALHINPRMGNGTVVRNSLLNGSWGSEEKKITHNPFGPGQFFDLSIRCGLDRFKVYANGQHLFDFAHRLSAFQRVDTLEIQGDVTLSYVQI

Activity, inactive:
CO[C@H]1O[C@H](CO)[C@H](O)[C@H](n2cc(-c3ccccc3NS(=O)(=O)C/C=C/c3ccccc3O)nn2)[C@H]1O
CO[C@H]1O[C@H](CO)[C@H](O)[C@H](n2cc(-c3ccccc3S(=O)(=O)N(C)c3ccccc3)nn2)[C@H]1O
CO[C@H]1O[C@H](CO)[C@H](O)[C@H](n2cc(-c3ccccc3NS(=O)(=O)c3cccc4ccccc34)nn2)[C@H]1O

These compounds were tested against Galectin-9 (Homo sapiens) (UniProt O00182) (assay: Binding affinity to N-terminal human Galectin-9 at 2 mM by competitive fluorescence polarization assay).

Activity, inactive:
CO[C@H]1O[C@H](CO)[C@H](O)[C@H](n2cc(-c3ccccc3S(=O)(=O)N(C)c3ccccc3)nn2)[C@H]1O
CO[C@H]1O[C@H](CO)[C@H](O)[C@H](n2cc(-c3cccc(S(=O)(=O)Nc4ccccc4)c3)nn2)[C@H]1O

Each compound was assayed against Galectin-3 (Homo sapiens) (UniProt P17931) (assay: Binding affinity to human Galectin-3 at 2 mM by competitive fluorescence polarization assay).

Activity, inactive:
CO[C@H]1O[C@H](CO)[C@H](O)[C@H](n2cc(-c3ccccc3S(=O)(=O)N(C)c3ccccc3)nn2)[C@H]1O
CO[C@H]1O[C@H](CO)[C@H](O)[C@H](n2cc(-c3cccc(S(=O)(=O)Nc4ccccc4)c3)nn2)[C@H]1O
